Laboratory results published in US20230391863A1.

Experiments:
[1] = target: human GDF-8 (myostatin) (human)
human Activin B (human) = human Activin B (human) (UniProt P09529)
human GDF-11 (human) = human GDF-11 (human) (UniProt O95390)
human Activin A (human) = human Activin A (human) (UniProt A4D1W7)

Substance: A110 (SEQ ID NOs: 41 & 17) (from UniProt P0DOX7 1-214)
- IC50; neutralisation of human GDF-8 (2 nM), Smad2/3 luciferase reporter cells (CAGA-luc), RLU against A110 (nM Log) [1]: 1.4 nM
- IC50; neutralisation of human Activin B (2 nM), Smad2/3 luciferase reporter cells (CAGA-luc), RLU against A110 (nM Log) (human Activin B (human)): 0.8 nM
- IC50; neutralisation of human GDF-11 (2 nM), Smad2/3 luciferase reporter cells (CAGA-luc), RLU against A110 (nM Log) (human GDF-11 (human)): 5.3 nM
- IC50; neutralisation of human Activin A (2 nM), Smad2/3 luciferase reporter cells (CAGA-luc), RLU against A110 (nM Log) (human Activin A (human)): 4.5 nM

Substance: A109 (SEQ ID NOs: 39 & 17) (from UniProt P0DOX7 1-214)
- IC50; neutralisation of human GDF-8 (2 nM), Smad2/3 luciferase reporter cells (CAGA-luc), RLU against A109 (nM Log) [1]: 0.3 nM
- IC50; neutralisation of human Activin B (2 nM), Smad2/3 luciferase reporter cells (CAGA-luc), RLU against A109 (nM Log) (human Activin B (human)): 0.2 nM
- IC50; neutralisation of human GDF-11 (2 nM), Smad2/3 luciferase reporter cells (CAGA-luc), RLU against A109 (nM Log) (human GDF-11 (human)): 4.4 nM
- IC50; neutralisation of human Activin A (2 nM), Smad2/3 luciferase reporter cells (CAGA-luc), RLU against A109 (nM Log) (human Activin A (human)): 2 nM
